Literature values as cited in patent US7582602B2, “Hirulog-like peptide and gene therapy” (priority 2000, dated 2009).

Settings: human; cited from earlier work

Compound: CC[C@H](C)[C@H](NC(=O)[C@H](CCC(=O)O)NC(=O)[C@H](CCC(=O)O)NC(=O)[C@H](Cc1ccccc1)NC(=O)[C@H](CC(=O)O)NC(=O)CNC(=O)[C@H](CC(N)=O)NC(=O)CNC(=O)CNC(=O)CNC(=O)CNC(=O)[C@@H]1CCCN1C(=O)[C@H](CCCNC(=N)N)NC(=O)[C@@H]1CCCN1C(=O)[C@H](N)Cc1ccccc1)C(=O)N1CCC[C@H]1C(=O)N[C@@H](CCC(=O)O)C(=O)N[C@@H](CCC(=O)O)C(=O)N[C@@H](Cc1ccc(O)cc1)C(=O)N[C@@H](CC(C)C)C(=O)O [Hirulog-1, reference compound]
- plasma half-life: 15 to 20 min
